{"source": "paper PMC3075617", "about": "(Cell, 2011)", "binders": {"B1": {"name": "DegP^S210A active-site mutant (enzyme, Escherichia coli, UniProt P0C0V0 27-474, looked up)", "chain": "AETSSATTAQQMPSLAPMLEKVMPSVVSINVEGSTTVNTPRMPRNFQQFFGDDSPFCQEGSPFQSSPFCQGGQGGNGGGQQQKFMALGSGVIIDADKGYVVTNNHVVDNATVIKVQLSDGRKFDAKMVGKDPRSDIALIQIQNPKNLTAIKMADSDALRVGDYTVAIGNPFGLGETVTSGIVSALGRSGLNAENYENFIQTDAAINRGNAGGALVNLNGELIGINTAILAPDGGNIGIGFAIPSNMVKNLTSQMVEYGQVKRGELGIMGTELNSELAKAMKVDAQRGAFVSQVLPNSSAAKAGIKAGDVITSLNGKPISSFAALRAQVGTMPVGSKLTLGLLRDGKQVNVNLELQQSSQNQVDSSSIFNGIEGAEMSNKGKDQGVVVNNVKTGTPAAQIGLKKGDVIIGANQQAVKNIAELRKVLDSKPSVLALNIQRGDSTIYLLMQ"}}, "key": {"[1]": {"target": "^flC18-58 (18-58 with a cysteine added near the N-terminus, modified by a fluorophore) (UniProt P00698)", "assay": "fluorescence polarisation"}, "[2]": {"target": "^flC18-58 (18-58 with a cysteine added near the N-terminus, modified by a fluorophore) (UniProt P00698)", "assay": "fluorescence polarisation", "remark": "listed apart in the source"}}, "note": "Like-named read-outs stand apart in the source and are kept apart here."}
{"binder": "B1", "values": [{"measurement": "Kd", "setting": "[1]", "result": 12, "unit": "µM"}, {"measurement": "Kd", "setting": "[2]", "result": 0.88, "unit": "µM"}]}
